# Values of other authors, collected in patent US20220195481A1, “MITOCHONDRIAL RESPIROMETRY IN FROZEN SPECIMENS” (The Regents of the University of Califormia, priority 2019, published 2022).
# System: Complex I
# Conditions: background statement; cited from earlier work
smiles,measurement,value
[H]/N=C(/N)N/C(=N/[H])NCCc1ccccc1 [Phenformin],market withdrawal due to toxicity,withdrawn from the market due to Complex I toxicity resulting in lactic acidosis
